These are literature values, as cited in article PMC10005301, “Prediction of the n-Octanol/Water Partition Coefficients of Basic Compounds Using Multi-Parameter QSRR Models Based on IS-RPLC Retention Behavior in a Wide pH Range” (Molecules, 2023).

Details of the series: method as in UFZ-LSER database. Conditions: hydrogen bonding parameter B; ref UFZ-LSER database; cited from earlier work.

With `Cc1cccc(N)n1` [2-Amino-6-methylpyridine], the B is 0.93.
